The target in this test is T1, Histone deacetylase 8 (Homo sapiens, UniProt Q9BY41).
T1 sequence (Q9BY41 whole entry): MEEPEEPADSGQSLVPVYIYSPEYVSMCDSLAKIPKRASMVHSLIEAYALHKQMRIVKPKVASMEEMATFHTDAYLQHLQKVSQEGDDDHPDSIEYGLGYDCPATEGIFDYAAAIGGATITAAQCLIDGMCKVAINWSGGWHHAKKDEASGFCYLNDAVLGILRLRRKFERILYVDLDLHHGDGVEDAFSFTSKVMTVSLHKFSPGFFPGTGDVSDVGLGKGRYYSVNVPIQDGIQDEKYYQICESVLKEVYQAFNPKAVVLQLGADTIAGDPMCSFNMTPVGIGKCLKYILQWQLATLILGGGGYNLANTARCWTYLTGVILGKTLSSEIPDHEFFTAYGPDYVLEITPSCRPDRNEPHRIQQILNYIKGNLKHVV

We go through one molecule from ChEMBL document CHEMBL1828590 (J Med Chem, 2011).

One may read the Ki as a dissociation constant, usually derived from enzyme kinetics or from competition with a known ligand. A low value points to a stronger hold on the target. With `O=C(CCCCCCC(=O)Nc1ccccc1)NO` [VORINOSTAT], the Ki was 173 nM.
